Experimental findings from PubChem BioAssay AID651997 (Sanford-Burnham Center for Chemical Genomics, 2013) are described below.

By UniProt entry, the sequences of proteins in these tests, tags left out.
UniProt P32249, whole entry: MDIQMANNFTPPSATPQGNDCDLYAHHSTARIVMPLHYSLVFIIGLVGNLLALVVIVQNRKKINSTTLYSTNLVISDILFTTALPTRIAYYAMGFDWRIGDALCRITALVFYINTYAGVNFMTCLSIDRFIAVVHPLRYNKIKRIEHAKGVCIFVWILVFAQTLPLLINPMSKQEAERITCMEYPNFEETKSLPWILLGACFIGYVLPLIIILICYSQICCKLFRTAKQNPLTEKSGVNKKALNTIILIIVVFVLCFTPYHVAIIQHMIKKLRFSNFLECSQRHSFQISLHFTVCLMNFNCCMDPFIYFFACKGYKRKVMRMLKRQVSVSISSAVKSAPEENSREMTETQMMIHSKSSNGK

The entries are a selection whose mix differs from that of the whole data set. Some results for these compounds are left out of this collection, so the calls shown say nothing about other tests. The source made the active and inactive calls.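 How the source made its calls: active means inhibition of at least 50%; inactive means the rest.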

Broadly, the inhibition is how much of the control response was suppressed.

The target in this assay is G-protein coupled receptor 183 (Homo sapiens) (UniProt P32249). The experiment in a line: EBI2 antagonist hit retest, beta-arrestin, confirmation, cell-based, single concentration, luminescence, 7a,25-OHC stimulation (AID 651997). The following applies: 7a,25-OHC antagonism, at 5 µM, active compounds read high.
For `CCCCC(CC)C(=O)N1CCN(C/C=C/c2ccccc2)CC1` (stereo unspecified), the inhibition is inactive: 25.3%.
